# B1: RAC-alpha serine/threonine-protein kinase (Homo sapiens), P31749 (parent)
# chain: MSDVAIVKEGWLHKRGEYIKTWRPRYFLLKNDGTFIGYKERPQDVDQREAPLNNFSVAQCQLMKTERPRPNTFIIRCLQWTTVIERTFHVETPEEREEWTTAIQTVADGLKKQEEEEMDFRSGSPSDNSGAEEMEVSLAKPKHRVTMNEFEYLKLLGKGTFGKVILVKEKATGRYYAMKILKKEVIVAKDEVAHTLTENRVLQNSRHPFLTALKYSFQTHDRLCFVMEYANGGELFFHLSRERVFSEDRARFYGAEIVSALDYLHSEKNVVYRDLKLENLMLDKDGHIKITDFGLCKEGIKDGATMKTFCGTPEYLAPEVLEDNDYGRAVDWWGLGVVMYEMMCGRLPFYNQDHEKLFELILMEEIRFPRTLGPEAKSLLSGLLKKDPKQRLGGGSEDAKEIMQHRFFAGIVWQHVYEKKLSPPFKPQVTSETDTRYFDEEFTAQMITITPPDQDDSMECVDSERRPHFPQFSYSASGTA
# partner: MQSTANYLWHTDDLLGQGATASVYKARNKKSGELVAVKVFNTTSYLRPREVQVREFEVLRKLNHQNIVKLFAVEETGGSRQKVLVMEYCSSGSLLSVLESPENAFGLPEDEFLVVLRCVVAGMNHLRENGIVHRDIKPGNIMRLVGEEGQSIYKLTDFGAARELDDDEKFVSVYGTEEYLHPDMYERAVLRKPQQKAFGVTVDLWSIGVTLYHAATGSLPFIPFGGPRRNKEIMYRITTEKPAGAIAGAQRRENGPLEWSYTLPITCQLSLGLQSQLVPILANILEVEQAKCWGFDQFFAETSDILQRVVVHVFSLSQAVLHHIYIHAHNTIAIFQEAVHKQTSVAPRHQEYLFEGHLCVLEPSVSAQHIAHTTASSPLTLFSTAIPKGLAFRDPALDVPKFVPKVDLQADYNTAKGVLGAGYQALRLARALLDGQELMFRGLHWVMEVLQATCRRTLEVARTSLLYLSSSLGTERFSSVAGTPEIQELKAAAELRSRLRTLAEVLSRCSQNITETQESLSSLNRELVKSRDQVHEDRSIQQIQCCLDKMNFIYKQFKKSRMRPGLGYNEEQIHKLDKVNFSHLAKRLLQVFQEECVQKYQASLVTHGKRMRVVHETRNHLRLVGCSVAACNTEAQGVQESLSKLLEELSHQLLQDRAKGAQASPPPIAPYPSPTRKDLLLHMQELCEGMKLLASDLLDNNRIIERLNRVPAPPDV
# B2: RAC-alpha serine/threonine-protein kinase (Homo sapiens), P31749 (parent)
# chain: B1 chain
# partner: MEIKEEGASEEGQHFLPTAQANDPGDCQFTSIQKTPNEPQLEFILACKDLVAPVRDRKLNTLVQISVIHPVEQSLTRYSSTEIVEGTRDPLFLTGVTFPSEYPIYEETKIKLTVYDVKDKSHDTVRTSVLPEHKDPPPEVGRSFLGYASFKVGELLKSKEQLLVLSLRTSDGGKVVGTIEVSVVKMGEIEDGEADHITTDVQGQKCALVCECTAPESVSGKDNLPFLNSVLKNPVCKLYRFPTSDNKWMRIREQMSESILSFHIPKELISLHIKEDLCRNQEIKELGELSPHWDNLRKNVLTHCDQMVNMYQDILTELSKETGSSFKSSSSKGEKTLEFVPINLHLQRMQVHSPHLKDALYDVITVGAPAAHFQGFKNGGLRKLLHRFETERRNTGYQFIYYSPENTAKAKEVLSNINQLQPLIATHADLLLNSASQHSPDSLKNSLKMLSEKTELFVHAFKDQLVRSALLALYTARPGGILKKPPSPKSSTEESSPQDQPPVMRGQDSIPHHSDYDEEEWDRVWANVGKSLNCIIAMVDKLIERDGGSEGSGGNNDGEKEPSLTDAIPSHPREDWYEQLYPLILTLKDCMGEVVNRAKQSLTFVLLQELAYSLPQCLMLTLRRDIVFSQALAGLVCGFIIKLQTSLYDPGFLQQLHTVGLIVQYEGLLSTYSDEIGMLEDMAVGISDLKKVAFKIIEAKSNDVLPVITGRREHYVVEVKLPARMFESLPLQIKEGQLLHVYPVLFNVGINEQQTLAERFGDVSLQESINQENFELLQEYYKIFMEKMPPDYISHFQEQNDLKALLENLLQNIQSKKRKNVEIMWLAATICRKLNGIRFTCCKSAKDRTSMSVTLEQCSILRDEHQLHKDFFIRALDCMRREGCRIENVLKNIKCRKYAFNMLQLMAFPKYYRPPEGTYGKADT
# B3: RAC-alpha serine/threonine-protein kinase (Homo sapiens), P31749 (parent)
# chain: B1 chain
# partner: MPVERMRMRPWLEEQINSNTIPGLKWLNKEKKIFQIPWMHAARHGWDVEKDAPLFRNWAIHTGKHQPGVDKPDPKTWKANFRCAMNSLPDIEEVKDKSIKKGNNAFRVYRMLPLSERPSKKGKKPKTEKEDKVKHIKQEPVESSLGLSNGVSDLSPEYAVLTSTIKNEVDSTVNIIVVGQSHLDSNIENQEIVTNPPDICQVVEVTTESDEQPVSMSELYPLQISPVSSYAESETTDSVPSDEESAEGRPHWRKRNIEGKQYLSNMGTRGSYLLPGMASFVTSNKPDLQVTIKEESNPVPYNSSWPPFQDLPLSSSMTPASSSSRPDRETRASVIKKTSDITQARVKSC
# B4: RAC-alpha serine/threonine-protein kinase (Homo sapiens), P31749 (parent)
# chain: B1 chain
# partner: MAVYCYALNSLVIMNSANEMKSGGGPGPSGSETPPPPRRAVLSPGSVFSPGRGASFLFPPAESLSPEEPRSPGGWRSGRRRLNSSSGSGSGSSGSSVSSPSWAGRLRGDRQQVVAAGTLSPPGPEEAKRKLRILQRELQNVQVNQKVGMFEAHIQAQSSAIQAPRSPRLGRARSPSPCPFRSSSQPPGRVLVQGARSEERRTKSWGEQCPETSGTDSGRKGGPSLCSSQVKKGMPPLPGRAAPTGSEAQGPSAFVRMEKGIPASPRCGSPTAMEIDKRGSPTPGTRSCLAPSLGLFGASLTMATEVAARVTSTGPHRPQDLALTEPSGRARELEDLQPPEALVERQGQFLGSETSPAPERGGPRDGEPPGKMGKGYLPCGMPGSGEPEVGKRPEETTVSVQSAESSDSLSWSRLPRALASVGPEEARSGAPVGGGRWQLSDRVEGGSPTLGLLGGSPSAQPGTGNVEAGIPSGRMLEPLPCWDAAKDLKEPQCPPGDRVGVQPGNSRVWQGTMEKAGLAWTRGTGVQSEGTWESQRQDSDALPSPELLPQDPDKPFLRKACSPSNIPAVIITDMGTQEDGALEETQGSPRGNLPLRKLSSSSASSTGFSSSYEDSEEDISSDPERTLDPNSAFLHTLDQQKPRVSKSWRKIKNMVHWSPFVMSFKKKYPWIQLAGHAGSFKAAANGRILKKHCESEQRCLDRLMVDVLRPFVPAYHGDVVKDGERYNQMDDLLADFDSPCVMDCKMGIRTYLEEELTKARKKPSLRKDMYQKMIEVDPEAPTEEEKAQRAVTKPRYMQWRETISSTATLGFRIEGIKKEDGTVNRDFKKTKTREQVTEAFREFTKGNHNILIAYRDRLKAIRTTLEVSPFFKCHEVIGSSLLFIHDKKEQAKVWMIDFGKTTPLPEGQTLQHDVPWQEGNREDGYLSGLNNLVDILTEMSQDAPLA
# B5: RAC-alpha serine/threonine-protein kinase (Homo sapiens), P31749 (parent)
# chain: B1 chain
# partner: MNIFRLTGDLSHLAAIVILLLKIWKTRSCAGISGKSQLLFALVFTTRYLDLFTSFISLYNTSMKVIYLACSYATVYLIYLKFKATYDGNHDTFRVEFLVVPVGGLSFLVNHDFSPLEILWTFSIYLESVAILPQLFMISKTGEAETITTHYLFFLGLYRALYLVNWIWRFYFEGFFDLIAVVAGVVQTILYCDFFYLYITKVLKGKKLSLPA
# Variants of: B1
# Conditions: with ikke_human IKBKE
row,effect of a mutation on the interaction,Variant
1,with no effect,E17K

# Variants of: B2
# Conditions: with inp4b_human INPP4B
row,effect of a mutation on the interaction,Variant
1,with no effect,E17K

# Variants of: B3
# Conditions: with irf2_human IRF2, P14316
row,effect of a mutation on the interaction,Variant
1,with no effect,E17K

# Variants of: B4
# Conditions: with ip3kb_human ITPKB
row,effect of a mutation on the interaction,Variant
1,with no effect,E17K

# Variants of: B5
# Conditions: with erd22_human KDELR2, P33947
row,effect of a mutation on the interaction,Variant
1,with no effect,E17K

# — IntAct's records for PubMed 35512704
